For 25 molecules, inhibition results are on record in PubChem BioAssay AID1220 (Sanford-Burnham Center for Chemical Genomics, 2008).

Amino acid sequences for entries named in this document (tags omitted).
UniProt P34949, whole entry: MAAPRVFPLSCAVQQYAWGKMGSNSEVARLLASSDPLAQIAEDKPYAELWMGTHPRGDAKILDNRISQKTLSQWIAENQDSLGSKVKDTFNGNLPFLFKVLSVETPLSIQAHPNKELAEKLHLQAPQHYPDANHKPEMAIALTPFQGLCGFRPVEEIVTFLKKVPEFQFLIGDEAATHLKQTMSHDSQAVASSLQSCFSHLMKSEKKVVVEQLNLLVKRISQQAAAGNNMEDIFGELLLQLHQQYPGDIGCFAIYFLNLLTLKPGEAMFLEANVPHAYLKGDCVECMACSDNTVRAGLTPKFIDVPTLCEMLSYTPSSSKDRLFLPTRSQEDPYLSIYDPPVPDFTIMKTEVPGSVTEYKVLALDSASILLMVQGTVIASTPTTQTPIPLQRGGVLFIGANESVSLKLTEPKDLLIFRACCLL

The entries are a selection whose mix differs from that of the whole data set. The source made the active and inactive calls. Rule as the data show it: active = inhibition above about 50%; inactive = the rest.

The term inhibition denotes the change of the read-out against control, counted positive when it falls.

The target of the test is Mannose-6-phosphate isomerase (Homo sapiens) (UniProt P34949). The test is described as follows: MPI inhibition at elevated mannose 6-phosphate – biochemical, fluorescence intensity, high mannose 6-phosphate, primary screen (AID 1220). As to conditions: recombinant PMI enzyme, coupled fluorescence intensity; at 20 µM; active compounds read high.
Consider `Fc1ccccc1NC1CCN(Cc2ccccc2)CC1`, for which the inhibition was inactive: -7.7%.
The result for `CN(C)c1ccc(C(=O)NCC2(N3CCCCC3)CCCCC2)cc1` reads inactive: -3.3%.
As for `CCN1CCC(Nc2cccc(F)c2)CC1`, the inhibition is inactive: -4.1%.
Then `CC(C)(C)OC(=O)N1CCC(Nc2ccccc2)CC1`, with inactive: 5.9%; and `CCOc1ncccc1C(=O)NCC1(N2CCOCC2)CCCCC1`, with inactive: -1.5%; and `COc1cc(OC)cc(C(=O)NCC2(N3CCOCC3)CCCCC2)c1`, with inactive: -6.6%.
Consider `CCC(CO)(C(=O)OC1CN2CCC1CC2)c1ccccc1` (stereo not given), for which the inhibition was inactive: 3.3%.
`COc1ccc(C(=O)NCC2(N3CCOCC3)CCCCC2)cc1OC`: the inhibition was inactive: -6.4%.
`O=C(OC1CN2CCC1CC2)C1c2ccccc2C=Cc2ccccc21` (stereo not given): the inhibition was inactive: -1.2%.
In the case of `N/C(=N\O)c1c(N)no[n+]1[O-]`, the inhibition is inactive: -10.5%.
Regarding `N#Cc1ccc(C(=O)NCC2(N3CCCCC3)CCCCC2)cc1`, the inhibition was inactive: -8.4%.
For the molecule `c1ccc(CN2CCC(Nc3ccccc3)CC2)cc1`, the inhibition was inactive: 17.2%.
`N#CC1(Nc2ccccc2)CCN(CCc2ccccc2)CC1`: the inhibition was inactive: 2.8%.
Then `O=C(NCC1(N2CCCCC2)CCCCC1)c1cccc([N+](=O)[O-])c1`, with inactive: -9.9%; and `O=C(NCC1(N2CCOCC2)CCCCC1)c1cc(=O)[nH]c2ccccc12`, with inactive: -2.2%; and `CN1CCN(CCOC(=O)C(O)(c2ccccc2)c2ccccc2)CC1`, with inactive: -19.5%.
As to `COc1ccc(NC2CCN(C(=O)OC(C)(C)C)CC2)cc1`, the inhibition is inactive: 16.4%.
As for `CC(C)c1ccc(NC2CCN(C(=O)OC(C)(C)C)CC2)cc1`, the inhibition was inactive: 29%.
As to `COc1ccc(CN(CCCl)CCCl)cc1Cl`, the inhibition is inactive: 26.9%.
The result for `CN(C)c1cccc(C(=O)NCC2(N3CCCCC3)CCCCC2)c1` reads inactive: 9.1%; that for `COc1ccc(C(=O)NCC2(N3CCCCC3)CCCCC2)c(OC)c1OC`, inactive: -8%; that for `O=C(OC1CN2CCC1CC2)C1c2ccccc2Oc2ccccc21` (stereo not given), inactive: 8.2%.
Turning to `CCOC(=O)N1CCC(Nc2ccc(OC)cc2)CC1`, the inhibition is inactive: 13.5%.
As to `O=C(NCC1(N2CCOCC2)CCCCC1)c1cc2ccccc2o1`, the inhibition is inactive: -4.1%.
`COc1ccc(NC2CCN(CCc3ccccc3)CC2)c(OC)c1`: the inhibition is active: 51.8%.
